# Target: Beta-secretase 1 (Homo sapiens, UniProt P56817)
# By UniProt entry, the sequences of proteins in these tests, tags left out. Where a name states a change or a piece, a line headed by the entry shows the natural chain unless it says otherwise.
# UniProt P56817: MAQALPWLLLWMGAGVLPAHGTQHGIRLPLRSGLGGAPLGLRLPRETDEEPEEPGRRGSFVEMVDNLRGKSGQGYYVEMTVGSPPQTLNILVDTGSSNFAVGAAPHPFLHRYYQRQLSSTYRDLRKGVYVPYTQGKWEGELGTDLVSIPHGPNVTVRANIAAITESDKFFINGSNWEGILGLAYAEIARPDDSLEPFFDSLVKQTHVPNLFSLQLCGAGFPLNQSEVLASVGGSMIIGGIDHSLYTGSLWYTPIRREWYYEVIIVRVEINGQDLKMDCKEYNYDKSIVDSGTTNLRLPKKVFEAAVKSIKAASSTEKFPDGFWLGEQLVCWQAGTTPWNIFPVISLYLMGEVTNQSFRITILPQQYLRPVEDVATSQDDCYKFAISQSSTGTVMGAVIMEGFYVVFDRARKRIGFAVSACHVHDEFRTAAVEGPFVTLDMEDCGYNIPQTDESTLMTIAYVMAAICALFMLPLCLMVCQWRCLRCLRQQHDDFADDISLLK
# Assay: Inhibition of human BACE1 (1 to 460 residues) expressed in baculovirus infected insect cells at 10 uM using Rh-EVNLDAEFK-quencher as substrate measured after 90 mins by FRET assay relative to control
smiles,measurement,value
C[C@@]1(c2cc(-c3cncnc3)c(F)cc2F)CCSC(N)=N1,inhibition,94.2%

# Source: ChEMBL document CHEMBL4359937, “Design, synthesis and evaluation of 2-amino-imidazol-4-one derivatives as potent β-site amyloid precursor protein cleaving enzyme 1 (BACE-1) inhibitors” (Bioorg Med Chem Lett, 2019)
